scFv variants of Ab-14 (light chain) against a SARS-CoV-2 spike peptide

Binding partner: SARS-CoV-2 spike HR2 peptide, sequence PDVDLGDISGINAS.

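The parent was found by panning a naive human phage display library on the peptide. AAYL50 was designed without a model: most single CDR substitutions and a random sample of double and triple ones. Affinity was read by AlphaSeq, a pooled yeast mating assay with surface-displayed partners. Binding brings cells together so that they mate, and sequencing counts the barcode pairs among the diploids. A regression on co-assayed BCL2-family reference pairs converts the normalised counts of each replicate to an apparent Kd. Mating was done three times.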

The variants keep the heavy chain, the linker and the frameworks of Ab-14 (scFv order VH, the linker GGGGSGGGGSGGGGS, VL).
VH: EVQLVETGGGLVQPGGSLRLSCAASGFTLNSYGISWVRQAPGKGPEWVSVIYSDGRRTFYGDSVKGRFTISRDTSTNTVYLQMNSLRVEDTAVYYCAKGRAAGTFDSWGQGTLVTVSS
VL: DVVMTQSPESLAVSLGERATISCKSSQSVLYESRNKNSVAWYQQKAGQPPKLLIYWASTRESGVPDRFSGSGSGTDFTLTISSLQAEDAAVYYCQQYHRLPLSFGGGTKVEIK

Each variant is given by its three light chain CDRs, as the data file delimits them; those of the parent are KSSQSVLYESRNKNSVA, WASTRES, QQYHRLPLS.
Values are log10 of the apparent Kd in nM; lower means stronger binding.
The mean shown is taken over the replicates in which the pair was detected.
Where no diploid with the target was found in any replicate, the entry reads "nd": below detection, most likely a poor binder, though not proof of it.

nd (0 of 3 replicates): KSSQSVLYRSRNKNMVA, WASTRES, QQEHRLPLS.
4.75 (1 of 3 replicates): WSSQSVLYESRNKNIEA, WASTRES, QQYHRLPLS.
0.90 (3 of 3 replicates): KSSQSVLYNSREKNSVA, WASTRER, QQYHRLPLS.
4.49 (1 of 3 replicates): KSSQSVLYESRNKNSVA, WASTRES, QQYWRPPWS.
3.69 (1 of 3 replicates): KSSQSVLYESRRKNSVA, WASTRES, HQYHRLPLS.
5.47 (1 of 3 replicates): KSSQSVLYESRNKNSVK, WHSTREK, QQYHRLPLS.
3.85 (3 of 3 replicates): KSRQSVLYESRNKNEVA, WASTRES, QQYHREPLS.
nd (0 of 3 replicates): KNSQSVLYESRFKNSVA, WASTRES, EQYHRLPLS.
4.91 (2 of 3 replicates): KSSQSVLYESRNPNSVA, WDSTRES, QQYQRLPLS.
nd (0 of 3 replicates): KSSQSVLYESRNKNSVA, WKSTRTS, GQYHRLPLS.
nd (0 of 3 replicates): KSSQSVLYESRNKSRVA, WASTPES, QQYHRLPLS.
3.59 (3 of 3 replicates): KSSQSVLYESRNKNSVA, WASTRES, RQIHRCPLS.
nd (0 of 3 replicates): KRSMSVLYESRNKNSVA, WISTRES, QQYHRLPLS.
5.04 (3 of 3 replicates): KSSQSVLYESRNKNSVA, WLSTRES, EQYHCLPLS.
3.82 (1 of 3 replicates): KSSQSVLYESRNKMSVA, WASTRES, QMYHFLPLS.
1.41 (3 of 3 replicates): KSSVSVLYEMRNKNSVA, WASTRES, QQYERLPLS.
2.94 (1 of 3 replicates): KSSVSVLYESRNKNSVA, KYSTRES, QQYHRLPLS.
4.72 (2 of 3 replicates): KDSQSCLYESRNKNSVA, WASTHES, QQYHRLPLS.
nd (0 of 3 replicates): KSSQSVLYESRNKNSVA, WASTRET, QQYHELVLS.
nd (0 of 3 replicates): KSSQSVLCEVRNKNSVA, WASTRES, QQYHRLPLS.
1.35 (3 of 3 replicates): KSSQSVLYESRNKGSVA, WASTRSS, QQYHRMPLS.
1.32 (3 of 3 replicates): KSVQPVLYESRNYNSVA, WASTRES, QQYHRLPLS.
3.04 (3 of 3 replicates): KSSQSVLYESRNANSVA, WVSTRES, QQKHRLPLS.
nd (0 of 3 replicates): KSSRSVLYESRNKNSRF, WASTRES, QQYHRLPLS.
nd (0 of 3 replicates): LSSQSVLYESRNKNSVA, WAFTRES, QQYHRVPLS.
5.10 (1 of 3 replicates): KSSQSVLYESRNKNSVA, WYSTGES, QQYHRLPLS.
nd (0 of 3 replicates): KSSQSVLYERRPKHSVA, WASTRES, QQYHRLPLS.
nd (0 of 3 replicates): KSSQSVLYESRNKNSVA, WAATREA, QQYHRLPLT.
3.74 (3 of 3 replicates): KTSQSVLYELRNKVSVA, WASTRES, QQYHRLPLS.
4.94 (1 of 3 replicates): KASQSVLYESRNKNSVA, WASTRES, QCYARLPLS.
3.80 (1 of 3 replicates): KSSQSVLYESFNYNSVA, WDSTRES, QQYHRLPLS.
4.80 (2 of 3 replicates): KSSQSVLYESRNCNSKA, WASTRES, QQYQRLPLS.
2.42 (3 of 3 replicates): KSSQSVLYESRNKNSVA, WAHTRGS, QQYHRLPLS.
nd (0 of 3 replicates): KSSQSVLYESRNKNSVS, WRSTQES, QQYHRLPLS.
3.52 (3 of 3 replicates): KSSQSVLWESRNKRSVA, WASTRES, QQYHRLVLS.
2.41 (3 of 3 replicates): YSSQSVLYESRNKNSVA, WASTRES, QQYHRLCLM.
4.41 (1 of 3 replicates): YSSQSVAYESRNKNSVA, WASTRES, QSYHRLPLS.
3.29 (3 of 3 replicates): KSSQSVRYEIRNKNSVA, WASTHES, QQYHRLPLS.
2.42 (3 of 3 replicates): KSSQSVLYESRNKNSVA, WASTRES, QQNHRIPLS.
3.96 (1 of 3 replicates): KSSQSVVYFSRNKNSVA, IASTRES, QQYHRLPLS.
4.35 (1 of 3 replicates): MSSYSVLYESRNKNVVA, WASTRES, QQYHRLPLS.
nd (0 of 3 replicates): KSSVSVLYESRNKNSVA, WAITRES, QPYHRLPLS.

Again, the first 3 entries without any signal:

CDR-L1,CDR-L2,CDR-L3,mean log10 Kd (nM),seen in
KSSQSVLYRSRNKNMVA,WASTRES,QQEHRLPLS,nd,0 of 3
KNSQSVLYESRFKNSVA,WASTRES,EQYHRLPLS,nd,0 of 3
KSSQSVLYESRNKNSVA,WKSTRTS,GQYHRLPLS,nd,0 of 3

Background: pairings of library AAYL50 with three empty control strains gave a value in 18% of cases (median 4.19, 5th percentile 2.99). Values in that range, when seen in few replicates, are hard to tell from nonspecific mating.

Reference: Engelhart et al. 2022, doi:10.1038/s41597-022-01779-4. File: FLAb, binding data.